Test results taken from paper PMC11840601, “Single Amino Acid Changes Impact the Ability of Drosophila melanogaster Cecropins to Inhibit Growth of Providencia Pathogens” (ACS Omega, 2025).

How the values were obtained:
P. burhodogranarieaB [1] = assay type: cell-based, Providencia burhodogranarieaB; details: broth microdilution, 96-well, Mueller Hinton broth, 25 °C, 16 h, OD600, peptide 64-1 or 128-2 μM
Method: (§1) Each cecropin was tested for its ability to inhibit the growth of Providencia bacterial species, strains that were previously isolated from D. melanogaster.[31] […] Therefore, we hypothesized the virulence of Providencia species may be partially due to differing susceptibility to cecropins. Experiments were conducted at 25 °C (Table 2), which is the temperature at which D. melanogaster are typically housed and likely reflects the temperature of bacterial growth in vivo as fruit flies are poikilotherms. […] Bacteria were determined to be in the log phase of growth when assays were started (Figure S3). P. burhodogranarieaB and P. burhodogranarieaD were the most susceptible to growth inhibition by all three native cecropin peptides (Table 2), which is unsurprising, given their low virulence and ability of D. melanogaster to sometimes clear infection by these bacteria.[32]P. sneebia, P. alcalifaciens, and P. rettgeri were more resistant to all three cecropins, with no growth inhibition observed against P. alcalifaciens in any condition.
(§2) For all antimicrobial testing, bacteria were cultured in order to obtain cells in their exponential growth phase. Liquid bacterial cultures were inoculated from a single bacterial colony on a streaked LB agar plate. Cultures were grown overnight in Mueller Hinton (MH) broth in an orbital shaker at 150 rpm for 16 h at 25 °C. The optical density (Absorbance600 nm) of overnight cultures were determined using a spectrophotometer (SmartSpec Plus, Bio-Rad, USA or Wireless Spectrometer (Vis), PASCO, USA). The overnight culture was then diluted to an optical density of 0.002 in M–H broth and incubated at 25 °C with shaking (150 rpm). Bacterial growth curves were determined experimentally for each bacterial species and at each temperature (Figure S4). Subcultures were grown for 5 h to ensure that each subculture was in its logarithmic growth phase and at a culture density above 0.1 Abs600 nm. After growth of the subculture for the designated time, the optical density was again measured and the bacterial culture was diluted to 0.002 Abs600 nm (∼2 × 10^6 CFU/mL) in M–H broth for use in subsequent assays.
(§3) The MIC for each peptide was determined using microdilution antimicrobial testing in 96-well plates. Peptide stocks were prepared at 1.28 mM in water and diluted to the desired concentration using M–H broth. A serial dilution was performed, with final peptide concentrations ranging from 64–1 μM or 128–2 μM on each plate. The plate was incubated on an orbital shaker (150 rpm) at 25 °C for 16 h. Growth inhibition was determined by measuring the optical density at 600 nm using a BioTek Synergy H1Microplate Reader. The MIC was determined to be the lowest concentration of peptide where there was no detectable difference in optical density when compared to wells lacking bacteria.

P. burhodogranarieaB [2] = assay: Propidium iodide permeability assay by flow cytometry; assay type: cell-based, Providencia burhodogranarieaB
Method: (§4) First, to assess permeability of the bacterial cells post-treatment, we used propidium iodide (PI), a dye that fluoresces when bound to DNA but is impermeable to intact cell membranes. Cells were analyzed by flow cytometry after various concentrations of an AMP were added to a bacterial culture; increasing cell fluorescence was indicative of a loss of membrane integrity, allowing PI to access the DNA within the bacterial cell (Figure 3). […] To directly assess the ability of bacterial cells to replicate and divide post-treatment, bacterial cultures were plated at various times after the addition of AMP. […] These experiments were performed using peptide concentrations at the previously determined MIC for each peptide-bacteria pair (Table 2).
(§5) Samples were prepared containing 5 μg/mL propidium iodide (PI) in MH broth. The cells were assessed by flow cytometry using a Millipore Guava easyCyte 8 at 0, 1, 3, 5, 7, 9, 11, 13, 15, and 20 min post-treatment and were incubated at 25 °C between measurements. […] Data processing was performed using OMIQ. Briefly, gates were set based on the initial scattering profiles of cells. A threshold was determined for red fluorescence; cells above that threshold were determined to be permeable. Gates and thresholds were applied consistently to each sample.
(§6) The number of total cells dropped over time for many samples due to peptide treatment, and the number of total cells at each time-point were scaled to the number of cells at 0 min. The number of destroyed or “missing” cells was determined by calculating the number of permeable and impermeable cells present at a given time, and subtracting those values from the total number of cells at 0 min.

P. burhodogranarieaD [3] = assay type: cell-based, Providencia burhodogranarieaD; details: 25 °C; for Minimum Inhibitory Concentration: broth microdilution, 96-well, Mueller Hinton broth, 16 h, OD600, peptide 64-1 or 128-2 μM
Method: as §1, §2, §3

P. alcalifaciens = assay type: cell-based, Providencia alcalifaciens; details: broth microdilution, 96-well, Mueller Hinton broth, 25 °C, 16 h, OD600, peptide 64-1 μM
Method: as §1
For all antimicrobial testing, bacteria were cultured in order to obtain cells in their exponential growth phase. […] The optical density (Absorbance600 nm) of overnight cultures were determined using a spectrophotometer (SmartSpec Plus, Bio-Rad, USA or Wireless Spectrometer (Vis), PASCO, USA). […] Bacterial growth curves were determined experimentally for each bacterial species and at each temperature (Figure S4). […] After growth of the subculture for the designated time, the optical density was again measured and the bacterial culture was diluted to 0.002 Abs600 nm (∼2 × 10^6 CFU/mL) in M–H broth for use in subsequent assays.
The MIC for each peptide was determined using microdilution antimicrobial testing in 96-well plates. […] Growth inhibition was determined by measuring the optical density at 600 nm using a BioTek Synergy H1Microplate Reader. The MIC was determined to be the lowest concentration of peptide where there was no detectable difference in optical density when compared to wells lacking bacteria.

P. burhodogranarieaD [4] = assay: Propidium iodide permeability assay by flow cytometry; assay type: cell-based, Providencia burhodogranarieaD
Method: as §4, §5, §6

P. burhodogranarieaB [5] = assay: Viability (CFU) kinetics assay; assay type: cell-based, Providencia burhodogranarieaB; details: peptide at MIC
Method: as §4
Bacterial cultures were treated with peptides at the experimentally determined MIC and small aliquots were removed at 0, 5, 10, 15, 20, 30- and 60 min post-treatment and diluted 100-fold in ice cold M–H broth. All zero-minute time-points were removed within 20 s of peptide being added. Diluted aliquots were then plated on M–H agar plates using a WASP II autoplate spiral plater (Microbiology International), which deposits 50 μL on each plate in a continuously decreasing concentric spiral. […]

P. rettgeri = assay type: cell-based, Providencia rettgeri; details: broth microdilution, 96-well, Mueller Hinton broth, 25 °C, 16 h, OD600, peptide 64-1 or 128-2 μM
Method: as §1, §2, §3

P. sneebia [6] = assay type: cell-based, Providencia sneebia; details: broth microdilution, 96-well, Mueller Hinton broth, 25 °C, 16 h, OD600, peptide 64-1 or 128-2 μM
Method: as §1, §2, §3

P. sneebia [7] = assay: Propidium iodide permeability assay by flow cytometry; assay type: cell-based, Providencia sneebia
Method: as §4, §5, §6

[8] = 1 min after addition of peptide at the MIC, 25 °C, flow cytometry
[9] = after 20 min incubation at MIC (2 μM CecB), flow cytometry

SMILES | Minimum Inhibitory Concentration (P. burhodogranarieaB [1]) [µM] | cells permeable to propidium iodide (P. burhodogranarieaB [2]; [8]) | cells permeable to propidium iodide (P. burhodogranarieaB [2]; by 7 min, peptide at the MIC) | Minimum Inhibitory Concentration (P. burhodogranarieaD [3]) [µM] | Minimum Inhibitory Concentration (P. alcalifaciens) [µM] | cells permeable to propidium iodide (P. burhodogranarieaD [4]; [8]) | cells permeable to propidium iodide (P. burhodogranarieaD [4]; by 7 min, peptide at the MIC) | loss of viability (CFU) kinetics (P. burhodogranarieaB [5]) | kinetics of membrane permeabilization compared to CecBG and CecB (P. burhodogranarieaB [2]; peptide at MIC, over 20 min) | increase in MIC compared to CecB (P. burhodogranarieaD [3]) [fold] | Minimum Inhibitory Concentration (P. rettgeri) [µM] | missing cells (decrease in cell count versus before peptide addition) (P. burhodogranarieaB [2]; [9]) | Minimum Inhibitory Concentration (P. sneebia [6]) [µM] | cells permeable to propidium iodide (P. sneebia [7]; [8]) | missing cells (decrease in cell count versus before peptide addition) (P. sneebia [7]; after 20 min incubation at MIC (32 μM CecB), flow cytometry) | cells permeable to propidium iodide (P. sneebia [7]; by 7 min, peptide at the MIC) | missing cells (decrease in cell count versus before peptide addition) (P. burhodogranarieaD [4]; [9]) [%]
CC[C@H](C)[C@H](NC(=O)CNC(=O)[C@H](CC(C)C)NC(=O)CNC(=O)[C@H](CCC(N)=O)NC(=O)[C@@H](NC(=O)[C@@H](NC(=O)[C@H](C)NC(=O)[C@H](CC(=O)O)NC(=O)[C@H](CCCNC(=N)N)NC(=O)[C@@H](NC(=O)[C@H](Cc1c[nH]cn1)NC(=O)[C@H](CCC(N)=O)NC(=O)CNC(=O)[C@@H](NC(=O)[C@H](CCCNC(=N)N)NC(=O)[C@H](CCC(=O)O)NC(=O)[C@@H](NC(=O)[C@H](CCCCN)NC(=O)[C@H](CCCCN)NC(=O)CNC(=O)[C@@H](NC(=O)[C@H](CCCCN)NC(=O)[C@H](CCCCN)NC(=O)[C@H](CC(C)C)NC(=O)[C@H](Cc1c[nH]c2ccccc12)NC(=O)CN)[C@@H](C)CC)[C@@H](C)CC)C(C)C)[C@@H](C)O)[C@@H](C)O)[C@@H](C)CC)C(=O)N[C@@H](C)C(=O)N[C@@H](CCC(N)=O)C(=O)N[C@@H](CCC(N)=O)C(=O)N[C@@H](C)C(=O)N[C@@H](C)C(=O)N[C@@H](CC(N)=O)C(=O)N[C@H](C(=O)N[C@@H](C)C(=O)N[C@@H](C)C(=O)N[C@H](C(=O)N[C@@H](C)C(=O)N[C@@H](CCCNC(=N)N)C(=O)NCC(N)=O)[C@@H](C)O)C(C)C [CecA] | 8 | about 5% | greater than 80% | 16 | >64 | about 5% | greater than 80% | slowest | – | – | – | – | – | – | – | – | –
CC[C@H](C)[C@H](NC(=O)CNC(=O)[C@H](CC(C)C)NC(=O)[C@H](CO)NC(=O)[C@H](CCC(N)=O)NC(=O)[C@@H](NC(=O)[C@H](CO)NC(=O)[C@H](C)NC(=O)[C@H](CC(=O)O)NC(=O)[C@H](CCCNC(=N)N)NC(=O)[C@@H](NC(=O)[C@H](Cc1c[nH]cn1)NC(=O)[C@H](CCC(N)=O)NC(=O)CNC(=O)[C@@H](NC(=O)[C@H](CCCNC(=N)N)NC(=O)[C@H](CCC(=O)O)NC(=O)[C@@H](NC(=O)[C@H](CCCCN)NC(=O)[C@H](CCCCN)NC(=O)CNC(=O)[C@H](CC(C)C)NC(=O)[C@H](CCCCN)NC(=O)[C@H](CCCNC(=N)N)NC(=O)[C@H](CC(C)C)NC(=O)[C@H](Cc1c[nH]c2ccccc12)NC(=O)CN)[C@@H](C)CC)[C@@H](C)CC)[C@@H](C)O)[C@@H](C)CC)C(=O)N[C@@H](C)C(=O)N[C@@H](CCC(N)=O)C(=O)N[C@@H](CCC(N)=O)C(=O)N[C@@H](C)C(=O)N[C@@H](C)C(=O)N[C@@H](CC(N)=O)C(=O)N[C@H](C(=O)N[C@@H](C)C(=O)N[C@@H](C)C(=O)N[C@H](C(=O)N[C@@H](C)C(=O)N[C@@H](CCCNC(=N)N)C(=O)NCC(N)=O)[C@@H](C)O)C(C)C [CecBS] | 4 | – | – | 16 | – | – | – | slowest | much more slowly | 8 | >128 | – | – | – | – | – | –
CC[C@H](C)[C@H](NC(=O)CNC(=O)[C@H](CC(C)C)NC(=O)[C@@H](NC(=O)[C@H](CCC(N)=O)NC(=O)[C@@H](NC(=O)[C@H](CO)NC(=O)[C@H](C)NC(=O)[C@H](CC(=O)O)NC(=O)[C@H](CCCNC(=N)N)NC(=O)[C@@H](NC(=O)[C@H](Cc1c[nH]cn1)NC(=O)[C@H](CCC(N)=O)NC(=O)CNC(=O)[C@@H](NC(=O)[C@H](CCCNC(=N)N)NC(=O)[C@H](CCC(=O)O)NC(=O)[C@@H](NC(=O)[C@H](CCCCN)NC(=O)[C@H](CCCCN)NC(=O)CNC(=O)[C@H](CC(C)C)NC(=O)[C@H](CCCCN)NC(=O)[C@H](CCCNC(=N)N)NC(=O)[C@H](CC(C)C)NC(=O)[C@H](Cc1c[nH]c2ccccc12)NC(=O)CN)[C@@H](C)CC)[C@@H](C)CC)[C@@H](C)O)[C@@H](C)CC)C(C)C)C(=O)N[C@@H](C)C(=O)N[C@@H](CCC(N)=O)C(=O)N[C@@H](CCC(N)=O)C(=O)N[C@@H](C)C(=O)N[C@@H](C)C(=O)N[C@@H](CC(N)=O)C(=O)N[C@H](C(=O)N[C@@H](C)C(=O)N[C@@H](C)C(=O)N[C@H](C(=O)N[C@@H](C)C(=O)N[C@@H](CCCNC(=N)N)C(=O)NCC(N)=O)[C@@H](C)O)C(C)C [CecB] | 2 | approximately 20% | greater than 80% | 2 | >64 | approximately 20% | greater than 80% | – | – | – | 64 | Approximately 60% | 32 | approximately 20% | almost no | greater than 80% | 50
